The target of the assay is human recombinant P2X7 receptor (Homo sapiens (Human), UniProt Q99572). Put plainly: YO-PRO assay: P2X7 receptor antagonistic activity. It counts as cell-based. To be noted: HEK cells expressing human P2X7. The method, then: The P2X7 receptor antagonistic activity of the compounds of formula (I) is determined in accordance with the following experimental method.
Cell Line Generation and YO-PRO Assay
Cell line generation was performed in general according to established molecular cloning protocols. Specifically, RNA was extracted from human whole blood using the Qiagen RNeasy kit (Qiagen, CH) according to the manufacturer's instructions. Subsequently cDNA was made (Superscript II, Invitrogen AG, CH) and the human P2X7 gene (genbank ref. BC011913) was amplified with the following primers: […] and […]. The amplified sequence was subsequently ligated into a pcDNA3.1 (+) NotI, NheI digested plasmid. […] Following a 24 h exposure to DNA, cells were trypsinized and re-seeded at low density in the presence of 250 μg Geneticin. Geneticin resistant cells were then selected during two consecutive rounds of cloning by serial limiting dilution with visual inspection. Individual clones were screened for P2X7 expression by applying ATP and recording the resultant uptake of YO-PRO1. Specific cell clones were chosen based on RNA and protein expression. HEK cells stably expressing P2X7 were used to screen drugs using the YO-PRO1 assay. Cells were grown to confluency in adherent culture at 37° C. in a humidified 5% CO2 incubator (split 1/5 every 3-4 days with DMEM, 10% FCS, 1% Penicillin/Streptomycin, 250 μg/ml Geneticin). Adherent cells were detached by incubation with Trypsine (1 ml per 165 cm^2 dish) for 2 minutes, then washed off with 10 ml PBS (without Mg^2+ and Ca^2+), and resuspended in DMEM, 10% FCS, 1% Penicillin/Streptomycin, no Geneticin. […] During this time period, four time points were taken. Each time point comprised the average of several measurements made within a few seconds. […] The FLIPR tetra was equipped with Molecular Devices Screen Works system control software to define and run experimental protocols. […] For IC50 measurements the maximum intensity is plotted against the concentration of compound to determine IC50 values.

Amino acid sequences for entries named in this document (tags omitted). A change or cut given only in a name is not applied to a line headed by its entry.
UniProt Q99572: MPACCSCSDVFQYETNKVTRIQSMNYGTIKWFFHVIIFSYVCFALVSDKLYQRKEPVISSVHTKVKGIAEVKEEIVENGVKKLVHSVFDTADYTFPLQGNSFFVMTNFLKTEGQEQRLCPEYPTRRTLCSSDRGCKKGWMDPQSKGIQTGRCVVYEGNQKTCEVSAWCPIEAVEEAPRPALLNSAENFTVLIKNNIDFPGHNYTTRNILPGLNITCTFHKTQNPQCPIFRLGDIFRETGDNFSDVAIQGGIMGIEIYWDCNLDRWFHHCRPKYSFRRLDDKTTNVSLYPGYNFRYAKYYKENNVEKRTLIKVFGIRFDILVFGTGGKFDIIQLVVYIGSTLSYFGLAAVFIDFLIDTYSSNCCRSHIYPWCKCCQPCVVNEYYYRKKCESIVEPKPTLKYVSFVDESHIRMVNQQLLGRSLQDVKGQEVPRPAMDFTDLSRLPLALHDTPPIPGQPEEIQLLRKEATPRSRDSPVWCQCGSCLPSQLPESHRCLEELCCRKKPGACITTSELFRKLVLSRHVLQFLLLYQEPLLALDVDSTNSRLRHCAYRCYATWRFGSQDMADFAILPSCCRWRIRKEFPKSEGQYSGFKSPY

pIC50: −log10 of the molar value.

For the compound `O=C(Cc1ccc(Cl)c(Cl)c1)NC1CCOc2ncccc21` (racemic) [Example 55, rac-2-(3,4-Dichloro-phenyl)-N-(3,4-dihydro-2H-pyrano[2,3-b]pyridin-4-yl)-acetamide], the pIC50 (commonly the IC50 on a negative log10 scale, so that one unit is a factor of ten) is 5.90. With `O=C(NC1COc2ncccc21)C1(c2ccc(Cl)cc2Cl)CC1` (racemic) [Example 24, rac-1-(2,4-Dichloro-phenyl)-cyclopropanecarboxylic acid (2,3-dihydro-furo[2,3-b]pyridin-3-yl)-amide] the figure was 6.88; with `[2H]C([2H])([2H])C(C(=O)NC1COc2ncccc21)c1cccc(C(F)(F)F)c1Cl` (stereo not shown) [Example 126, 2-(2-Chloro-3-trifluoromethyl-phenyl)-2-trideuteromethyl-N-2,3-dihydro-furo[2,3-b]pyridin-3-yl-acetamide], 7.35; with `O=C(CCc1ccc(Cl)cc1Cl)NC1COc2ncccc21` (racemic) [Example 27, rac-3-(2,4-Dichloro-phenyl)-N-(2,3-dihydro-furo[2,3-b]pyridin-3-yl)-propionamide], 5.46. With `Cc1cc2c(cn1)OCC2NC(=O)Cc1cccc(C(F)(F)F)c1Cl` (racemic) [Example 117, rac-2-(2-Chloro-3-trifluoromethyl-phenyl)-N-(5-methyl-2,3-dihydro-furo[2,3-c]pyridin-3-yl)-acetamide] the figure was 7.20; with `O=C(Cc1cccc(C(F)(F)F)c1Cl)NC1COc2nnccc21` (racemic) [Example 109, rac-2-(2-Chloro-3-trifluoromethyl-phenyl)-N-(5,6-dihydro-furo[2,3-c]pyridazin-5-yl)-acetamide], 8.05; with `O=C(Cc1ccc(F)cc1Cl)NC1CCOc2ncccc21` (racemic) [Example 38, rac-2-(2-Chloro-4-fluoro-phenyl)-N-(3,4-dihydro-2H-pyrano[2,3-b]pyridin-4-yl)-acetamide], 6.30. Under `O=C(Cc1cccc(Cl)c1Cl)NC1COc2ncccc21` (racemic) [Example 66, rac-2-(2,3-Dichloro-phenyl)-N-(2,3-dihydro-furo[2,3-b]pyridin-3-yl)-acetamide] stands 7.70; under `O=C(Cc1ccc(Cl)cc1Cl)NC1COc2ncccc21` (racemic) [Example 1, rac-2-(2,4-Dichloro-phenyl)-N-(2,3-dihydro-furo[2,3-b]pyridin-3-yl)-acetamide], 7.48; under `O=C(Cc1ccc(Cl)cc1Cl)NC1COc2ncccc21` (single isomer, unassigned) [Example 4, 2-(2,4-Dichloro-phenyl)-N-(2,3-dihydro-furo[2,3-b]pyridin-3-yl)-acetamide], 7.40. As for `O=C(Cc1ccc(Cl)cc1Cl)NC1CCOc2ncccc21` (single isomer, unassigned) [Example 30, 2-(2,4-Dichloro-phenyl)-N-(3,4-dihydro-2H-pyrano[2,3-b]pyridin-4-yl)-acetamide], the pIC50 was 6.75. Consider `O=C(NC1COc2ncccc21)C1(c2ccc(F)cc2Cl)CCCC1` (racemic) [Example 25, rac-1-(2-Chloro-4-fluoro-phenyl)-cyclopentanecarboxylic acid (2,3-dihydro-furo[2,3-b]pyridin-3-yl)-amide], for which the pIC50 was 6.82. Under `O=C(Cc1ccc(F)cc1Cl)NC1COc2ncccc21` (racemic) [Example 2, rac-2-(2-Chloro-4-fluoro-phenyl)-N-(2,3-dihydro-furo[2,3-b]pyridin-3-yl)-acetamide] stands 6.99. Under `O=C(Cc1ccc(Cl)cc1Cl)NC1COc2cnccc21` (racemic) [Example 83, rac-2-(2,4-Dichloro-phenyl)-N-(2,3-dihydro-furo[2,3-c]pyridin-3-yl)-acetamide] stands 7.82; under `CC(C)(C(=O)NC1COc2ncccc21)c1ccc(Cl)cc1` (racemic) [Example 26, rac-2-(4-Chloro-phenyl)-N-(2,3-dihydro-furo[2,3-b]pyridin-3-yl)-isobutyramide], 5.56; under `O=C(Cc1ccc(Cl)cc1Cl)NC1CCOc2ncccc21` (racemic) [Example 9, rac-2-(2,4-Dichloro-phenyl)-N-(3,4-dihydro-2H-pyrano[2,3-b]pyridin-4-yl)-acetamide], 6.84. With `O=C(Cc1cccc(C(F)(F)F)c1)NC1CCOc2ncccc21` (racemic) [Example 47, rac-N-(3,4-Dihydro-2H-pyrano[2,3-b]pyridin-4-yl)-2-(3-trifluoromethyl-phenyl)-acetamide] the figure was 5.86; with `O=C(Cc1c(Cl)cc(Cl)cc1C(F)(F)F)NC1CCOc2ncccc21` (racemic) [Example 56, rac-2-(2,4-Dichloro-6-trifluoromethyl-phenyl)-N-(3,4-dihydro-2H-pyrano[2,3-b]pyridin-4-yl)-acetamide], 6.31.

`O=C(Cc1ccc(Cl)cc1C(F)(F)F)NC1CCOc2ncccc21` (racemic) [Example 53, rac-2-(4-Chloro-2-trifluoromethyl-phenyl)-N-(3,4-dihydro-2H-pyrano[2,3-b]pyridin-4-yl)-acetamide]: the pIC50 is 5.88. For `O=C(Cc1ccc(Cl)cc1Cl)NC1COc2ncccc21` (single isomer, unassigned) [Example 3, 2-(2,4-Dichloro-phenyl)-N-(2,3-dihydro-furo[2,3-b]pyridin-3-yl)-acetamide], the pIC50 was 7.38.

Regarding `O=C(Cc1ccc(Cl)cc1Cl)NC1CCOc2ncccc21` (single isomer, unassigned) [Example 31, 2-(2,4-Dichloro-phenyl)-N-(3,4-dihydro-2H-pyrano[2,3-b]pyridin-4-yl)-acetamide], the pIC50 is 6.74. On to `O=C(NC1COc2ncccc21)C1CCc2cc(Cl)ccc21` (stereo not shown) [Example 145, 5-chloro-N-(2,3-dihydrofuro[2,3-b]pyridin-3-yl)-2,3-dihydro-1H-indene-1-carboxamide], for which the pIC50 is 5.63.

Values taken from US9221832B2, “Heterocyclic amide derivatives as P2X7 receptor antagonists” (ACTELION PHARMACEUTICALS LTD., priority 2011, dated 2015).
